# Assay results as given in patent publication US8592152B2, “Gene detection assay for improving the likelihood of an effective response to an EGFR antagonist cancer therapy” (Genentech, Inc., priority 2000, dated 2013).
# Columns and labels:
# [1] = tested on: metastatic breast cancer; experiment: FISH/clinical outcome study: single agent Herceptin as 2nd or 3rd line therapy; format: in vivo, human
# Protocol: (§1) The Clinical Testing Assay (CTA) involves two separate IHC assays performed with either monoclonal antibodies 4D5 (after protease digestion of the formalin fixed sample) or CB11 (after heat treatment of the formalin fixed sample). Subjects were eligible if either assay was scored at 2+ or 3+. If both were performed, the final score was the higher of the two results.
# (§2) Thus, formalin-fixed cut sections stored between 2.5 and 4.5 years from 540 subjects provided the sample pool for this study.
# [2] = tested on: metastatic breast cancer; experiment: FISH/clinical outcome study: single agent Herceptin as 1st line therapy; format: in vivo, human
# Protocol: as §1, §2
# [3] = tested on: HER2-overexpressing metastatic breast cancers; conditions: patients with HER2-overexpressing metastatic breast cancers that received extensive prior anti-cancer therapy; cited from earlier work
# [4] = FISH+, 3+ subgroup, 2nd or 3rd line, N = 107
# [5] = FISH-, 2+/3+ combined, 2nd or 3rd line, N = 142
# [6] = FISH-, 3+ subgroup, 2nd or 3rd line, N = 107
substance,measurement,setting,value
"Herceptin®: recombinant humanized IgG1 version of the murine anti-HER2 antibody 4D5, commercially available from Genentech",response rate,"[1]; 3+ subjects, regardless of FISH",17%
same,No response (number of subjects),"[1]; FISH+, 2+ subgroup, 2nd or 3rd line, N = 35",12
same,No response (number of subjects),"[1]; FISH+, 2+/3+ combined, 2nd or 3rd line, N = 142",84
same,No response (number of subjects),[1]; [4],72
same,Response (number of subjects),[1]; [4],18
same,response rate,"[1]; FISH-, 2+ subgroup, 2nd or 3rd line",0%
same,Response (number of subjects),"[1]; FISH-, 2+ subgroup, 2nd or 3rd line, N = 35",0
same,response rate,"[1]; FISH-, 2+/3+ combined, 2nd or 3rd line",0%
same,No response (number of subjects),[1]; [5],37
same,Response (number of subjects),[1]; [5],0
same,response rate,"[1]; FISH-, 3+ subgroup, 2nd or 3rd line",0%
same,No response (number of subjects),[1]; [6],17
same,Response (number of subjects),[1]; [6],0
same,response rate,"[2]; 3+, 2+ subjects, regardless of FISH",27%
same,response rate,"[2]; FISH+, 2+/3+ combined",41%
same,No response (number of subjects),"[2]; FISH+, 2+/3+ combined, N = 62",24
same,Response (number of subjects),"[2]; FISH+, 2+/3+ combined, N = 62",17
same,clinical activity,[3],clinically active
